We go through 28 molecules from patent US8754079B2, “Cycloalkyl containing thienopyrimidines for pharmaceutical compositions” (Boehringer Ingelheim International GmbH, priority 2010, dated 2014).

Sequences of proteins named here, by UniProt entry; tags and fusion partners are left off.
UniProt Q9HBH9, whole entry: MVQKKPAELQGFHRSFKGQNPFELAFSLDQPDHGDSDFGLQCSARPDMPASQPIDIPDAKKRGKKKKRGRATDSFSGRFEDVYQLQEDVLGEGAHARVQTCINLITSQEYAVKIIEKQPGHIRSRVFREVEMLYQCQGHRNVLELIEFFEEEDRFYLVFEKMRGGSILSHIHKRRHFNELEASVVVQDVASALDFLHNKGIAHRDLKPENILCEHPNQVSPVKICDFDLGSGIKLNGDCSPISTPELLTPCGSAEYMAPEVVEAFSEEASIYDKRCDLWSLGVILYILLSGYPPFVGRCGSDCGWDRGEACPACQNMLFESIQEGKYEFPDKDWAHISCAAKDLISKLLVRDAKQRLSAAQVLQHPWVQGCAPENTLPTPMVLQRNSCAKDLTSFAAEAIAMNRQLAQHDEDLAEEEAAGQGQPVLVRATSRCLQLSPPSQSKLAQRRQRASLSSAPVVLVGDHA

Broadly, the IC50 is the concentration needed to halve the response being measured.

The target of this experiment is MNK2 (Homo sapiens, UniProt Q9HBH9). In words: Mnk2a in vitro kinase assay (indirect fluorescence polarization). The experiment is classed as biochemical. The settings on record: read-out: MNK2 IC50; pre-activated GST-Mnk2a 2.5 nM, 20 μM ATP, 30 μM substrate peptide. Here is the method:
Inhibitory potency of compounds against Mnk1, Mnk2a and other kinases was assessed with assays based on a format known to those skilled in the art as the indirect (competitive) fluorescence polarization. The assay detection system comprises a small fluorophore-labeled phospho-peptide (termed ligand) bound to a phospho-specific antibody. The product generated by the kinase reaction competes with the ligand for antibody binding. Based on the larger molecular volume of the bound ligand, which results in a lower rotation rate in solution, its emitted light has a higher degree of polarization than the one from the free ligand.
Example 2a. Mnk1 and Mnk2a in vitro kinase assay
As a source of enzyme, human Mnk1 and human Mnk2a were expressed as GST fusion proteins in E. coli, purified to >80% homogeneity by glutathione affinity chromatography and activated in vitro with pre-activated ERK2. In brief, the open reading frames of human Mnk1 and Mnk2a were amplified from cDNA using the forward/reverse primer pairs
(utilized restriction sites underlined), respectively, and cloned into the BamHI and SalI sites of the vector pGEX-4T1 (Amersham, Sweden, cat. no. 27-4580-01). These constructs allow prokaryotic expression of Mnk1 or Mnk2a as fusion protein with a N-terminal glutathione S-transferase (GST) tag, referred to as GST-Mnk1 or GSTMnk2a. The following expression and purification procedure was identical for GSTMnk1 and GST-Mnk2a, referring in general to GST-Mnk, when not distinguishing between the two isoforms. Expression of GST-Mnk was in E. coli BL21 (Merck Biosciences, Germany, cat. no. 69449). Cells were grown in LB-Bouillon (Merck, Germany, cat. no. 1.10285) supplemented with 100 μg/ml ampicillin (Sigma, Germany, cat. no. A9518) at 37° C. When the culture had reached a density corresponding to an A600 of 0.8, an equal volume of ice cold LB/ampicillin was added, the culture transferred to 25° C. and induced for 4 h with 1 mM isopropyl thiogalactoside (IPTG, Roth, Germany, cat. no. 2316.4). Cells harvested by centrifugation were resuspended in 10 ml lysis buffer (50 mM tris(hydroxymethyl)aminomethane hydrochloride (Tris/HCl, Sigma, Germany, cat. no. T5941) pH 7.5, 300 mM sodium chloride (NaCl, Sigma, Germany, cat. no. S7653), 5% (w/v) glycerol (Sigma, Germany, cat. no. G5516), 3 mM DTT dithiotreitol (DTT, Sigma, Germany, cat. no. D9779)) per gram wet weight cell pellet. Lysates were prepared by disruption of cells with a sonifier and subsequent clearing by centrifugation at 38000 g for 45 min at 4° C.
The lysate was applied to a GSTPrep FF 16/10 column (Amersham, Sweden, cat. no. 17-5234-01) equilibrated with lysis buffer. Removal of unbound material was with 3 column volumes (CV) lysis buffer. Elution was with 2 CV of elution buffer (50 mM Tris/HCl pH 7.5, 300 mM NaCl, 5% (w/v) glycerol, 20 mM glutathione (Sigma, Germany, cat. no. G4251)). Peak fractions were pooled and the protein transferred into storage buffer (50 mM Tris/HCl pH 7.5, 200 mM NaCl, 0.1 mM ethylene glycolbis(2-aminoethylether)-N,N,N′,N′-tetraacetic acid (EGTA, Aldrich, Germany, cat. no. 23, 453-2), 1 mM DTT, 10% (w/v) glycerol, 0.5 M sucrose (Sigma, Germany, cat. no. S0389) by gel filtration on a PD10 desalting column (Amersham, Sweden, cat. no. 17-0851-01). Aliquots were shock frozen in liquid nitrogen and stored at −80° C.
Activation of Mnk1 and Mnk2a was at a concentration of 2.5 μM of either purified GST-Mnk1 or GST-Mnk2a by incubation with 150 nM pre-activated NHis-ERK2 (see ERK2 assay for preparation) and 50 μM adenosine triphosphate (ATP, Sigma, cat. no. A2699) in a buffer comprising 20 mM N-(2-hydroxyethyl)piperazine-N′-(2-ethanesulfonic acid) (HEPES, Fluka, Germany, cat. no 54459)/potassium hydroxide (KOH, Roth, Germany, cat. no 6751.1) pH 7.4, 10 mM magnesium chloride (MgCl2, Sigma, Germany, cat. no. M2670), 0.25 mM DTT, 0.05% (w/v) polyoxyethylene 20 stearylether (Brij 78, Sigma, Germany, cat. no. P4019) (HMDB buffer) for 45 min at 30° C. […]
Background: In fluorescence polarisation assays a small probe gives low polarisation when free and higher when bound to something large.
Take `CO[C@H]1CC[C@H](Oc2cc(F)ccc2Nc2ncnc3sc(C(=O)NCCC4CCCN4C)c(C)c23)CC1` (stereo partly shown): the IC50 came to 0.014 µM.

As for `CO[C@H]1CCC[C@@H](Oc2ncccc2Nc2ncnc3sc(C(=O)NCCCN(C)C)c(C)c23)C1`, the IC50 is 0.017 µM. The same measure for `CO[C@H]1CC[C@H](Oc2cc(F)ccc2Nc2ncnc3sc(C(=O)NCCCN4CCCC4)c(C)c23)CC1`: 0.018 µM; for `Cc1c(C(=O)NC2CCN(C)CC2)sc2ncnc(Nc3ccc(F)cc3O[C@H]3CC[C@H](O)CC3)c12`: 0.017 µM.

As to `CO[C@H]1C[C@@H](Oc2cc(F)ccc2Nc2ncnc3sc(C(=O)NCCCN(C)C)c(C)c23)C[C@H]1OC` (relative stereo), the IC50 was 0.13 µM. On to `Cc1c(C(=O)NCCCN(C)C)sc2ncnc(Nc3ccc(F)cc3OC3CCCC(O)C3)c12` (stereo not shown), for which the half-inhibitory concentration (IC50) worked out at 0.018 µM. The same measure for `Cc1c(C(=O)NCCCN2CCOCC2)sc2ncnc(Nc3ccc(F)cc3O[C@H]3CC[C@H](O)CC3)c12`: 0.012 µM; for `CO[C@@H]1CCCC[C@H]1Oc1cc(F)ccc1Nc1ncnc2sc(C(=O)NCCCN(C)C)c(C)c12`: 0.019 µM; for `CO[C@H]1CC[C@H](Oc2cc(F)ccc2Nc2ncnc3sc(C(=O)NCCCN(C)C)c(C)c23)CC1`: 0.021 µM. With `CO[C@H]1CCCC[C@@H]1Oc1cc(F)ccc1Nc1ncnc2sc(C(=O)NCCCN3CCOCC3)c(C)c12`, the IC50 is 0.48 µM.

Turning to `Cc1c(C(=O)NCCCN(C)C)sc2ncnc(Nc3ccc(F)cc3O[C@@H]3CCCC[C@@H]3O)c12`, the IC50 is 0.175 µM.

As for `CO[C@H]1CCCC[C@@H]1Oc1cc(F)ccc1Nc1ncnc2sc(C(=O)NCCO)c(C)c12`, the IC50 worked out at 0.38 µM.

For the molecule `Cc1c(C(=O)NCCCN(C)C)sc2ncnc(Nc3ccc(F)cc3O[C@H]3C[C@@H]4OCO[C@@H]4C3)c12`, the IC50 turned out to be 0.049 µM. The same measure for `CO[C@H]1CCCC[C@@H]1Oc1cc(F)ccc1Nc1ncnc2sc(C(=O)NCCCN3CCCC3)c(C)c12`: 0.26 µM.

`CO[C@H]1CC[C@H](Oc2ncccc2Nc2ncnc3sc(C(=O)NCCO)c(C)c23)CC1`: the IC50 was 0.02 µM. For `CO[C@H]1CCCC[C@@H]1Oc1cc(F)ccc1Nc1ncnc2sc(C(=O)NCCC3CCCN3C)c(C)c12` (stereo partly shown) the value was 0.41 µM. With `CO[C@H]1CC[C@H](Oc2cc(F)ccc2Nc2ncnc3sc(C(=O)NCCCN4CCN(C)CC4)c(C)c23)CC1`, the IC50 worked out at 0.01 µM. Regarding `CO[C@H]1CCCC[C@@H]1Oc1cc(F)ccc1Nc1ncnc2sc(C(=O)NCCCn3ccnc3)c(C)c12`, the IC50 is 0.46 µM.

Regarding `CO[C@H]1CCCC[C@@H]1Oc1cc(F)ccc1Nc1ncnc2sc(C(=O)NCCN(C)C)c(C)c12`, the IC50 was found to be 0.44 µM. In the case of `Cc1c(C(=O)NCCO)sc2ncnc(Nc3ccc(F)cc3O[C@@H]3CCC[C@@H](O)C3)c12` (relative stereo), the IC50 stood at 0.017 µM. For `CO[C@@H]1CCC[C@@H](Oc2ncccc2Nc2ncnc3sc(C(=O)NCCCN(C)C)c(C)c23)C1` the value was 0.065 µM; for `Cc1c(C(=O)NCCCN(C)C)sc2ncnc(Nc3ccc(F)cc3O[C@H]3CCCC[C@H]3O)c12`, 0.042 µM; for `CO[C@H]1CC[C@H](Oc2cc(F)ccc2Nc2ncnc3sc(C(=O)NCCCN4CC[C@@H](O)C4)c(C)c23)CC1`, 0.004 µM. For `CO[C@H]1CC[C@H](Oc2cc(F)ccc2Nc2ncnc3sc(C(=O)NC4CCN(C)CC4)c(C)c23)CC1` the value was 0.025 µM; for `CO[C@H]1CC[C@H](Oc2cc(F)ccc2Nc2ncnc3sc(C(=O)NCCCN4CC[C@H](O)C4)c(C)c23)CC1`, 0.005 µM; for `CO[C@H]1CC[C@H](Oc2ncccc2Nc2ncnc3sc(C(=O)NCCCN(C)C)c(C)c23)CC1`, 0.022 µM. For `Cc1c(C(=O)NCCC2CCCN2C)sc2ncnc(Nc3ccc(F)cc3O[C@H]3CC[C@H](O)CC3)c12` (stereo partly shown) the value was 0.009 µM; for `Cc1c(C(=O)NCC2COCCN2)sc2ncnc(Nc3ccc(F)cc3O[C@H]3CC[C@H](O)CC3)c12` (stereo partly shown), 0.021 µM.
